High-throughput results deposited in PubChem by National Center for Advancing Translational Sciences (NCATS).
In the library only some 2.2% were active in any assay of this set; here they are far more common.
A549 tox = counter-screen for Nrf2 inhibitors: cytotoxicity in A549 cells. A549 ARE-Fluc cells, CellTiter-Fluor viability, 18-24 h. Potency, µM (doses to about 46 µM), actives largely listed as inhibitors. 390,000 tested, 0.16% active
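A549 ARE_Fluc cells in 5% FBS OPTI-MEM were exposed to compounds in concentration-response for 18-24 h at 37 deg C. Viability was read by CellTiter-Fluor fluorescence (Ex 405/Em 525) after 30 min, before the luciferase read.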
GALK inh = inhibitors of human galactokinase; P51570; Purified GALK, Kinase-Glo residual ATP luminescence; Potency, µM (series often up to 57.5 µM), hits mostly inhibitors; 270,000 tested, 0.007% active; AID 1868
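Luminescence from leftover ATP (Ultra-Glo luciferase/luciferin) served as read-out after a 1 h room-temperature reaction of 5 nM GALK with 35 uM ATP and 100 uM galactose.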
miR-21 reporter = raises the signal of a miR-21 reporter | HeLa miR-21 FLuc reporter, luciferase, 48 h | Potency, µM (highest dose often 38.3 µM) | 340,000 tested, under 10 active | AID 2288; active = well fitted rising curve with a large enough effect; inconclusive = small, poorly fitted or top-dose-only effect; inactive = no such curve, though single readings can be large or run the other way;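 note: miR-21 action dims this reporter so a rising signal means less miR-21 action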
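HeLa miR-21-FLuc reporter line, endogenous miR-21; 2000 cells/well in DMEM/10% FBS; compound titration up to ~40uM final, 48 h, 37 degree Celsius; luciferase detection reagent, 15 min lysis, CCD luminescence.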
Nrf2 block = inhibitors of Nrf2 signaling | A549 ARE-Fluc reporter, luciferase luminescence, 18-24 h | AID 504444 | Potency, µM (highest dose often 46 µM), hits mostly inhibitors | 360,000 tested, 2.1% active; further: nearly all actives have a fitted effect of over 60% in size
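A549 ARE_Fluc cells, 5000/well, 5% FBS OPTI-MEM; compounds in dose-response, 18-24 h at 37 °C/5% CO2; CellTiter-Fluor viability read (Ex 405/Em 525), then BugLite luciferase luminescence = Nrf2 activity.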
PI4K2A inh = blocks human PI4K2A kinase activity; purified PI4K2A, ADP-Glo luminescence, 1 h; hits give low values; 420,000 tested, 0.13% active; activity change, negative = inhibition, % at 76.9 µM; Q9BTU6; in the data active means activity change below about -50%; inconclusive means mostly about -30% to -49%
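PI4K2A activity was measured by ADP-Glo luminescence: enzyme (4 ug/mL stock) and phosphatidylinositol (1.2 mM stock) in Tris pH 7.5/MgCl2/EGTA/Triton X-100 buffer were reacted with ATP (300 microM stock) for one hour at ambient temperature.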
Nrf2 ARE act = activators of Nrf2 (ARE) signaling; AREc32 ARE-luciferase reporter (MCF7-derived line), luminescence, 24 h; Potency, µM (doses to about 46.1 µM), usual class: activators; 410,000 tested, 0.31% active; further: nearly all actives have a fitted effect of over 65% in size
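Cells of the AREc32 ARE-luciferase line are plated in OPTI-MEM containing 5% FBS and left overnight at 37 deg C. Compounds are pinned in, incubation continues 24 hr, and firefly luciferase signal is then measured.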
A number is an active result. Unless noted, the call rests on the fitted dose curve; in most records, active means well fitted curve in the direction sought with a large enough effect; inconclusive means small, poorly fitted or top-dose-only effect, or another doubt; inactive means no such curve, though single readings can be large; an effect the other way counts as inactive or inconclusive.

Results for CC(C)CC(=O)Nc1ccc(C(=O)NNC(=S)NC(=O)C2CCCCC2)cc1 ?
A549 tox: inactive; GALK inh: inactive; miR-21 reporter: inactive; Nrf2 block: 8.2µM; PI4K2A inh: inactive; Nrf2 ARE act: inactive

How did Cc1ccc(C)c(NS(=O)(=O)c2ccc3c4c(cccc24)C(=O)N3)c1 do in these assays?
A549 tox: inactive; miR-21 reporter: inconclusive; Nrf2 block: 18.4µM; PI4K2A inh: inactive; Nrf2 ARE act: inactive

What do the screens show for `COc1cc(F)c(S(=O)(=O)N2CCCN(S(=O)(=O)c3ccc4c(c3)OCCO4)CC2)c(F)c1`?
A549 tox: inactive; Nrf2 block: inconclusive

Results for CCCc1ccc(OC(C)c2nc(-c3ccc(-n4cccc4)cc3)no2)cc1 (stereo not drawn) ?
A549 tox: inactive; miR-21 reporter: inactive; Nrf2 block: 23.1µM; PI4K2A inh: inactive; Nrf2 ARE act: inactive

How did COc1ccc(CCc2nc(-c3ccc(-n4cccc4)cc3)no2)cc1 do in these assays?
A549 tox: inactive; GALK inh: inactive; miR-21 reporter: inactive; Nrf2 block: 16.4µM; PI4K2A inh: inactive; Nrf2 ARE act: inactive

What do the screens show for `Cc1ccccc1OCC(=O)N/N=C/c1cc2ccccc2nc1Cl`?
A549 tox: inactive; GALK inh: inactive; miR-21 reporter: inactive; Nrf2 block: 18.4µM; PI4K2A inh: inactive; Nrf2 ARE act: inactive

Results for Cc1ccc(C(=O)NCC(=O)OC(C(=O)Nc2cc(C(F)(F)F)ccc2Cl)c2ccccc2)cc1 (stereo not drawn) ?
A549 tox: inactive; Nrf2 block: inconclusive

Results for COc1cccc(/C=C2\CC3(OC(=O)c4ccc(Cl)cc4)CCCN2C3)c1 (stereo not drawn) ?
PI4K2A inh: inactive

How did COc1ccc(NC(=O)C2CCN(S(=O)(=O)c3ccc4c(c3)NC(=O)C(C)S4)CC2)cc1 (stereo not drawn) do in these assays?
A549 tox: inactive; GALK inh: inactive; miR-21 reporter: inactive; Nrf2 block: 23.1µM; PI4K2A inh: inactive; Nrf2 ARE act: inactive

How did CCOc1ccc(NC(=O)C2CCN(S(=O)(=O)c3ccc4c(c3)NC(=O)C(C)S4)CC2)cc1 (stereo not drawn) do in these assays?
A549 tox: inactive; GALK inh: inactive; miR-21 reporter: inactive; Nrf2 block: 14.6µM; PI4K2A inh: inactive; Nrf2 ARE act: inactive

What do the screens show for `Cc1cc2c(s1)c1cnn(Cc3ccc(Br)cc3)c(=O)c1n2C`?
A549 tox: inactive; Nrf2 block: inactive

What do the screens show for `COc1cc(Br)c(C(=O)c2nccc3cc(OC)c(OC)cc23)cc1OC`?
A549 tox: inactive; GALK inh: inactive; miR-21 reporter: inactive; Nrf2 block: inconclusive; PI4K2A inh: -52.1; Nrf2 ARE act: inactive

How did O=C(c1cc(Cl)cc(Cl)c1)N1CC[C@H]2[C@H](CCCN2Cc2ccc(F)cc2)C1 do in these assays?
PI4K2A inh: inactive

What do the screens show for `Cc1nn(C)cc1CN(C)Cc1ccc(OCC(O)CN2CCCCC2)cc1` (stereo not drawn)?
A549 tox: inactive; GALK inh: inactive; miR-21 reporter: inactive; Nrf2 block: inactive; PI4K2A inh: inactive; Nrf2 ARE act: inactive

How did CN(Cc1ccc(OCC(O)CN2CCCCC2)cc1)Cc1ccnc2ccccc12 (stereo not drawn) do in these assays?
A549 tox: inactive; GALK inh: inactive; miR-21 reporter: inactive; Nrf2 block: 5.8µM; PI4K2A inh: inactive; Nrf2 ARE act: inactive

Results for Cc1ccc(C)c(C(=O)COc2ccccc2[N+](=O)[O-])c1 ?
A549 tox: inactive; GALK inh: inactive; miR-21 reporter: inactive; Nrf2 block: inactive; PI4K2A inh: inactive; Nrf2 ARE act: 22.4µM

Results for C/C(=N\O)[C@@H](C)NCC(C)(C)CN[C@H](C)/C(C)=N/O ?
PI4K2A inh: inactive

Results for CNC(=O)[C@H]1O[C@@H](n2cnc3c(NCc4cccc(I)c4)nc(Cl)nc32)[C@H](O)[C@@H]1O ?
A549 tox: inactive; Nrf2 block: 18.4µM; PI4K2A inh: inactive; Nrf2 ARE act: inactive

How did CCc1ccc(N2CCn3c2nc2c3c(=O)n(Cc3c(F)cccc3Cl)c(=O)n2C)cc1 do in these assays?
A549 tox: inactive; miR-21 reporter: inactive; Nrf2 block: 23.1µM; PI4K2A inh: inactive; Nrf2 ARE act: inactive

Results for CCc1ccc(N2CCn3c2nc2c3c(=O)n(Cc3ccc(F)cc3)c(=O)n2C)cc1 ?
A549 tox: inactive; miR-21 reporter: inactive; Nrf2 block: inconclusive; PI4K2A inh: inactive; Nrf2 ARE act: inactive

Results for C(=C\c1nc(-c2ccncc2)no1)/c1ccccc1 ?
A549 tox: inactive; GALK inh: inactive; miR-21 reporter: inactive; Nrf2 block: inconclusive; PI4K2A inh: inactive; Nrf2 ARE act: inconclusive

How did C(=C\c1nc(-c2ccccc2)no1)/c1ccccc1 do in these assays?
A549 tox: inactive; GALK inh: inactive; miR-21 reporter: inactive; Nrf2 block: inconclusive; PI4K2A inh: inactive; Nrf2 ARE act: 14.1µM

What do the screens show for `COc1ccccc1CCNc1ncnc2nc[nH]c12`?
A549 tox: inactive; Nrf2 block: inconclusive

How did COc1ccc(CCNc2ncnc3nc[nH]c23)cc1 do in these assays?
A549 tox: inactive; Nrf2 block: 14.6µM

How did CCOC(=O)c1cc(CC)sc1NC(=O)CN1CCN(C(=O)c2ccco2)CC1 do in these assays?
A549 tox: inconclusive; GALK inh: inactive; miR-21 reporter: inactive; Nrf2 block: 20.6µM; PI4K2A inh: inactive; Nrf2 ARE act: inactive

What do the screens show for `O=C(NCc1cccnc1)c1ccc(-c2ccc(Cl)cc2)o1`?
A549 tox: inactive; GALK inh: inactive; miR-21 reporter: inactive; Nrf2 block: inconclusive; PI4K2A inh: inactive; Nrf2 ARE act: inactive

Results for O=C(NCc1cccnc1)/C(=C\c1ccc(-c2ccc(Cl)c(Cl)c2)o1)S(=O)(=O)c1ccccc1 ?
A549 tox: inconclusive; GALK inh: inactive; miR-21 reporter: inconclusive; Nrf2 block: 18.4µM; PI4K2A inh: inactive; Nrf2 ARE act: inconclusive

Results for CC(C)(C)c1ccc(/C=N/NC(=O)Cc2c[nH]c3ccccc23)cc1 ?
A549 tox: inconclusive; GALK inh: inactive; miR-21 reporter: inactive; Nrf2 block: 25.9µM; PI4K2A inh: inactive; Nrf2 ARE act: inactive

How did Cc1nnsc1NC(=O)OCc1ccc(Cl)cc1Cl do in these assays?
A549 tox: inactive; GALK inh: inactive; miR-21 reporter: inactive; Nrf2 block: inconclusive; PI4K2A inh: inactive; Nrf2 ARE act: inactive

Results for Cc1nn(C)c(Cl)c1NC(=O)OCc1ccc(Cl)cc1Cl ?
A549 tox: inactive; GALK inh: inactive; miR-21 reporter: inactive; Nrf2 block: 16.4µM; PI4K2A inh: inactive; Nrf2 ARE act: inactive

Results for c1ccc2cc3[nH]c(CNc4nc(N5CCOCC5)nc5c4ncn5-c4ccsc4)nc3cc2c1 ?
PI4K2A inh: inactive
